Chains of the proteins cited; added tags and fusions are not shown. Residues count along the entry.
UniProt O42275, 24-633: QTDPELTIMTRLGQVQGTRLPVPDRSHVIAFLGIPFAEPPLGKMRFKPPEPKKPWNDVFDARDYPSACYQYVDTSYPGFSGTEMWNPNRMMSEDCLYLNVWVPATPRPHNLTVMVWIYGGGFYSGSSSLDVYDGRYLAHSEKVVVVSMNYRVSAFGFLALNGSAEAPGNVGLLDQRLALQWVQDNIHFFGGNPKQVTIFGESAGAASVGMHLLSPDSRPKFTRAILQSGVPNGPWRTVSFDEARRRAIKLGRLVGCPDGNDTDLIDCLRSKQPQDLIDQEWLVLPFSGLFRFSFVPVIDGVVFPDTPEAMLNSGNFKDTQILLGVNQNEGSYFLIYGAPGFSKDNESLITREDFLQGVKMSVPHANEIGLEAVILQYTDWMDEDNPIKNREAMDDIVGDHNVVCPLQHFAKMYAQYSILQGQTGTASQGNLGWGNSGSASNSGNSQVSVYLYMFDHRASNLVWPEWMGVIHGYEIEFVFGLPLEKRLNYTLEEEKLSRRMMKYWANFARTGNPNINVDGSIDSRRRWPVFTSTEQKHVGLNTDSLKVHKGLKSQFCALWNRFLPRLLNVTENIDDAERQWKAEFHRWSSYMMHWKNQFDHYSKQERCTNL

According to paper PMC7436049, “Combining In Silico and In Vitro Studies to Evaluate the Acetylcholinesterase Inhibitory Profile of Different Accessions and the Biomarker Triterpenes of Centella asiatica” (Molecules, 2020):

Target: T1, acetylcholinesterase from electrophorus electricus (Electrophorus electricus, UniProt O42275)
T1 construct: purchased Sigma–Aldrich (St. Louis, MO, USA)
Assay type: biochemical
Settings: Ellman's method, 412 nm, mean ± SEM, triplicates
Method: All solvents were HPLC grade, purchased from Merck (Darmstadt, Germany). […] Sodium monobasic […] were purchased from Merck (Darmstadt, Germany), and acetylcholinesterase from electrophorus electricus, 5,5′-Dithiobis (2-nitrobenzoic acid), and […] were obtained from Sigma–Aldrich (St. Louis, MO, USA).
The AChE inhibitory activity was evaluated using Ellman’s method, as reported previously. Each sample (20 µL of 5 mg/mL in DMSO) was dispensed in triplicate into a 96-well microplate and mixed with 190 µL of DTNB, 20 µL of substrate (ATCI). The control wells contained 2% of DMSO instead of the extract. The enzymatic activity was measured at 412 nm every 30 s intervals for 3 min. The buffer solution was used as negative control.
The percentage inhibition (%I) of each sample and the positive control (physostigmine) was calculated using the formula:%I: [(Ac − As)/(Ac)] × 100(1) where (%I): Percentage inhibition • Ac: Absorbance of negative control • As: Absorbance of sample
The experiments were expressed as the mean ± standard error of the mean (SEM) in triplicates.

asiaticoside
AChE inhibitory activity, IC50 Values: 59.13 ± 0.18 µg/mL
